This is a selection; strong and weak results do not stand in their true shares. Calls of active or inactive are those of the source. No stated cut-off is given here; in the data, active means normalized activity above about 1.9%; inactive means the rest.

The chains behind the UniProt entries cited, without tags or fusion partners. Where a name states a change or a piece, a line headed by the entry shows the natural chain unless it says otherwise.
UniProt Q969H0, whole entry, stated change not applied: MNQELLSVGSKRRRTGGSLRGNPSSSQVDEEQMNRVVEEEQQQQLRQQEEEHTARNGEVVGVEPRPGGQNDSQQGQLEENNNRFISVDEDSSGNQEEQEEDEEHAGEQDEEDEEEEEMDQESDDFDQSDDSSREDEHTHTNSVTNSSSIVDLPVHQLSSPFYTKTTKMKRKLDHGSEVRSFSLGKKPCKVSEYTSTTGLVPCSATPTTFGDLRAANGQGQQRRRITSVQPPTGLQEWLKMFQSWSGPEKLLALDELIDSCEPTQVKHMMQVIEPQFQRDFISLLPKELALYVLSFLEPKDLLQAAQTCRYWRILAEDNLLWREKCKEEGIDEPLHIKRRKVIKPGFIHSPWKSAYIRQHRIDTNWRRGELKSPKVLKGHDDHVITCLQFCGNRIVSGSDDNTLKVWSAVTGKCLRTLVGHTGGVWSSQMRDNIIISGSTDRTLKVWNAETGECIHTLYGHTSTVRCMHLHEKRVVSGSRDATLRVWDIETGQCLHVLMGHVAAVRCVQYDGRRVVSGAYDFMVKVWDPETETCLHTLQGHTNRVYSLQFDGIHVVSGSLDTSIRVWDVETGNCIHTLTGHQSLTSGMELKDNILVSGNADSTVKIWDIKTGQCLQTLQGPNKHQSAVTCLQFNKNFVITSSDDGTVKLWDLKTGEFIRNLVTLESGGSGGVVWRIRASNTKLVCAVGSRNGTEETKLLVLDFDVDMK

This test has as its target F-box/WD repeat-containing protein 7 (Homo sapiens) (UniProt Q969H0). Nature of the test: FBW7 E3 ligase activators, primary screen, biochemical, AlphaScreen, human (AID 1259310).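 Further: purified mutant Fbw7 with reduced substrate affinity.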 The following applies: AlphaScreen FBW7–phospho-cyclin E peptide binding, activator screen; at 26.1 µM; hits give high values.
In the case of `CN1CCC(Nc2ccc(F)c(Cl)c2)CC1`, the normalized activity (activation) is inactive: 0.64%.
With `CC(C)(C)OC(=O)N1CCC(Nc2ccc(F)cc2F)CC1`, the normalized activity (activation) is inactive: 0.12%.
With `Fc1ccc(NC2CCN(Cc3ccccc3)CC2)cc1F`, the normalized activity (activation) is inactive: 0.04%.
As for `O=C(O)C1(Nc2ccccc2)CCN(Cc2ccccc2)CC1`, the normalized activity (activation) is inactive: -0.02%.
As to `CCCOc1ccc(C(=O)NCC2(N(C)C)CCCCC2)cc1`, the normalized activity (activation) is inactive: -0.17%.
As to `COc1cc(OC)cc(C(=O)NCC2(N3CCOCC3)CCCCC2)c1`, the normalized activity (activation) is inactive: 0.12%.
For `CCC(CO)(C(=O)OC1CN2CCC1CC2)c1ccccc1` (centres undefined) the value was inactive: -0.14%; for `CN1CCC(Nc2ccc(Cl)cc2)CC1`, inactive: 0.75%; for `COc1ccc(NC2CCN(Cc3ccncc3)CC2)cc1`, inactive: 0.39%.
For `CN(C)C1(CNC(=O)c2cc(=O)[nH]c3ccccc23)CCCCC1` the value was inactive: 0.01%; for `CCCN1CCC(Nc2ccc(Cl)cc2)CC1`, inactive: 0.38%.
For `CC1CN(Cc2ccccc2)CCC1=O` (centres undefined) the value was inactive: 0.28%.
Turning to `[C-]#N.[K+].c1ccc2c(c1)OCCOCCOc1ccccc1OCCOCCO2`, the normalized activity (activation) is inactive: -0.18%.
Turning to `CN(C)C1(CNC(=O)c2cc3c(s2)CCC3)CCCCC1`, the normalized activity (activation) is inactive: -0.12%.
For `CN1CCC(Nc2ccccc2Cl)CC1` the value was inactive: 0.03%; for `Fc1cccc(NC2CCN(CCc3ccccc3)CC2)c1`, inactive: -0.16%.
For `Clc1ccc(NC2CCN(Cc3ccccc3)CC2)cc1` the value was inactive: 0.28%; for `CCOP(=O)(OCC)SCC(=O)N(CC)CC`, inactive: 0.14%; for `CCN1CCC(Nc2ccc(F)cc2)CC1`, inactive: 0.01%.
As for `CC1CN(C)C(C)CC1Nc1ccccc1` (centres undefined), the normalized activity (activation) is inactive: -0.07%.
As for `O=C(NCC1(N2CCCCC2)CCCCC1)c1ccc([N+](=O)[O-])s1`, the normalized activity (activation) is inactive: 0.02%.
In the case of `CN1CCC(Nc2ccccc2F)CC1` it was inactive: -0.11%; in that of `CC(C)(C)OC(=O)N1CCC(Nc2ccc(Cl)cc2Cl)CC1`, inactive: -0.06%; in that of `N#Cc1ccc(C(=O)NCC2(N3CCCCC3)CCCCC2)cc1`, inactive: 0.26%.
With `CC(=O)N1CCN(C/C=C/c2ccccc2[N+](=O)[O-])CC1`, the normalized activity (activation) is inactive: -0.02%.
In the case of `COc1ccc(CCN2CCC(Nc3ccc(OC)cc3)CC2)cc1`, the normalized activity (activation) was inactive: 0.51%.
As to `COc1cccc(OC)c1CN1CCC(=O)CC1`, the normalized activity (activation) is inactive: 0.17%.
In the case of `CCCN1CCC(Nc2cc(OC)cc(OC)c2)CC1` it was inactive: 0.25%.
With `c1ccc(CN2CCC(Nc3ccccc3)CC2)cc1`, the normalized activity (activation) was inactive: 0.21%.
Take `COc1cc(C(=O)NCC2(N3CCOCC3)CCCCC2)cc(OC)c1C`: the normalized activity (activation) was inactive: 0.3%.
In the case of `NC(=O)C1(Nc2ccccc2)CCN(Cc2ccccc2)CC1` it was inactive: -0.04%; in that of `COc1ccc(C(=O)NCC2(N3CCOCC3)CCCCC2)cc1OC`, inactive: 0%.
Regarding `CCOC(=O)N1CCC(Nc2ccc(C)cc2)CC1`, the normalized activity (activation) was inactive: 0.05%.
With `O=C(NCC1(N2CCOCC2)CCCCC1)c1ccc2c(c1)OCO2`, the normalized activity (activation) is inactive: 0.07%.
As to `O=C1CCN(CCc2ccccc2)CC1`, the normalized activity (activation) was inactive: 0.46%.
On to `CN1CCC(Nc2ccc(F)cc2)CC1`, for which the normalized activity (activation) was inactive: 0.07%.
Regarding `CCOC(=O)N1CCC(Nc2ccc(Cl)cc2)CC1`, the normalized activity (activation) is inactive: 0.09%.
Take `Cc1ccc(C(=O)O)cc1N(CCCl)CCCl`: the normalized activity (activation) was inactive: 0.22%.
For `FC(F)(F)Oc1ccc(NC2CCNCC2)cc1` the value was inactive: -0.03%; for `COc1ccc(CN(CCCl)CCCl)cc1Cl`, inactive: 0%; for `COc1cc(OC)c(C(=O)NCC2(N(C)C)CCCCC2)cc1OC`, inactive: 0%.
For `COc1cccc(OC)c1CN1CCC(Nc2ccccc2)CC1`, the normalized activity (activation) was inactive: -0.23%.
As to `CN1CCC(Nc2cccc(F)c2)CC1`, the normalized activity (activation) was inactive: -0.17%.
With `O=C(NCC1(N2CCCCC2)CCCCC1)c1cncc(Br)c1`, the normalized activity (activation) was inactive: 0.51%.
In the case of `Cc1cc(C(=O)NCC2(N3CCOCC3)CCCCC2)c2ccccc2n1`, the normalized activity (activation) was inactive: -0.01%.
Regarding `CCN1CCC(Nc2ccccc2F)CC1`, the normalized activity (activation) was inactive: -0.04%.
As for `CCCOc1ccc(C(=O)NCC2(N(C)C)CCCCC2)cc1OC`, the normalized activity (activation) was inactive: -0.07%.
`COc1ccc(CCN2CCC(N(Cc3ccco3)C(C)=O)CC2)cc1`: the normalized activity (activation) was inactive: 0.01%.
Take `CCN1CCC(Nc2ccc(Cl)cc2)CC1`: the normalized activity (activation) is inactive: 0.02%.
Consider `O=C(NCC1(N2CCCCC2)CCCCC1)c1cccc([N+](=O)[O-])c1`, for which the normalized activity (activation) is inactive: -0.06%.
In the case of `COc1ccc(NC2CCN(CCc3cccs3)CC2)cc1`, the normalized activity (activation) was inactive: -0.26%.
`O=C(NCC1(N2CCOCC2)CCCCC1)c1cc(=O)[nH]c2ccccc12`: the normalized activity (activation) is inactive: -0.09%.
Regarding `COc1ccccc1/C=C/CN1CCN(C(C)=O)CC1`, the normalized activity (activation) was inactive: -0.12%.
As for `CN1CCN(CCOC(=O)C(O)(c2ccccc2)c2ccccc2)CC1`, the normalized activity (activation) was inactive: -0.11%.
With `O=C1CCN(Cc2ccccc2)CC1`, the normalized activity (activation) was inactive: 0.04%.
Regarding `CCCN1CCC(Nc2ccc(F)cc2)CC1`, the normalized activity (activation) is inactive: 0.11%.
On to `CC(=O)N1CCc2ccc(N(C(=O)C(C)(C)C)C3CCN(Cc4ccccc4)CC3)cc21`, for which the normalized activity (activation) is inactive: -0.05%.
On to `CN(C)P(=O)(OC(C)(C)C(Cl)(Cl)Cl)SCCCCl` (centres undefined), for which the normalized activity (activation) is inactive: 0.37%.
As to `CCOC(=O)N1CCC(Nc2ccc(F)cc2)CC1`, the normalized activity (activation) is inactive: -0.01%.
In the case of `COc1ccc(NC2CCN(CCc3ccccn3)CC2)cc1` it was inactive: 0.7%.
As for `CCOC(=O)N1CCC(Nc2cccc(C)c2)CC1`, the normalized activity (activation) was inactive: -0.09%.
Consider `COc1cccc(CN(CCCl)CCCl)c1`, for which the normalized activity (activation) is inactive: 0.03%.
For `COc1ccc(C(=O)NCC2(N3CCCCC3)CCCCC2)c(OC)c1OC`, the normalized activity (activation) was inactive: -0.01%.
Turning to `CCCN1CCC(Nc2ccc(OC)c(OC)c2)CC1`, the normalized activity (activation) is inactive: -0.05%.
Take `COc1ccc(C(=O)NCC2(N3CCCCC3)CCCCC2)cc1`: the normalized activity (activation) is inactive: -0.2%.
As for `CN(CCOC(=O)C(O)(c1ccccc1)c1ccccc1)C(C)(C)C`, the normalized activity (activation) is inactive: 1.15%.
As for `N#CC1(Nc2ccccc2)CCN(Cc2ccccc2)CC1`, the normalized activity (activation) is inactive: 0.27%.
In the case of `CC1CN(CCc2ccccc2)CCC1=O` (centres undefined) it was inactive: -0.02%; in that of `CCOC(=O)N1CCC(Nc2ccc(OC)cc2)CC1`, inactive: -0.02%.

The record behind these values is PubChem BioAssay AID1259310 (The Scripps Research Institute Molecular Screening Center, 2017).
